Assay results reported in patent publication US20260274833A1 (NiKang Therapeutics, Inc., priority 2022, published 2026).

Target: CDK2 (Homo sapiens, UniProt P24941)
Test: Phospho-RB measurement in OVCAR3 cells (HTRF phospho-RB cellular kit)
Conditions: read-out: CDK2 IC50, inhibition of RB phosphorylation at S807/811 (HTRF, TR-FRET ratio 665/620), 24 h compound treatment, 0.3 to 10,000 nM
Method: Biological Example 1: Phospho-RB Measurement in OVCAR3 Cells
The ability of compounds of Formula (I) to inhibit CDK2 was determined in OVCAR3 cells by measuring inhibition of phosphorylation of RB protein at S780 and S807/811. Phosphorylation of RB protein at S807/811 were measured using HTRF phospho-RB cellular kits (Cat #64RBS807PEG) from Cisbio.
On Day 1, OVCAR3 cells were seeded into 96-well tissue-culture treated plates at 20,000 cells/well in 200 μL and incubated overnight at 37° C. in CO2 atmosphere. On Day 2, the cells were treated with test compounds at concentrations from 0.3 to 10,000 nM using HP D300 digital dispenser. Twenty-four hours after compound treatment, cell culture media was removed by flicking the plate and tapping the plate against clean paper towel. Immediately 30 μL 1× lysis buffer was supplemented from the kit and the plate was incubated at room temperature on shaker for 30 min. After homogenization by pipetting up and down, 8 μL cell lysate from 96-well cell culture plate was transferred to 384-well small volume white detection plate. […]
Detection plates were incubated for 4 h at room temperature and read on ClarioStar (BMG Labtech) in TR-FRET mode ([…]). […] Half maximal inhibition concentration (IC50) values are calculated with a four-parameter logistic fit using GraphPad Prism (version 8; La Jolla, CA).

SMILES: CN(C)C(=O)c1cccc2c1CN(S(=O)(=O)Nc1cccc(-c3nc(C(C)(C)C)sc3-c3ccnc(NC4CC5(C4)CS(=O)(=O)C5)n3)c1F)C2
- IC50: 3.01 µM
